# Source: article PMC9935396
# Chains of the proteins cited; added tags and fusions are not shown. Lines headed by an entry give the natural chain unless they say otherwise; changes in a name come on top.
# UniProt P16370: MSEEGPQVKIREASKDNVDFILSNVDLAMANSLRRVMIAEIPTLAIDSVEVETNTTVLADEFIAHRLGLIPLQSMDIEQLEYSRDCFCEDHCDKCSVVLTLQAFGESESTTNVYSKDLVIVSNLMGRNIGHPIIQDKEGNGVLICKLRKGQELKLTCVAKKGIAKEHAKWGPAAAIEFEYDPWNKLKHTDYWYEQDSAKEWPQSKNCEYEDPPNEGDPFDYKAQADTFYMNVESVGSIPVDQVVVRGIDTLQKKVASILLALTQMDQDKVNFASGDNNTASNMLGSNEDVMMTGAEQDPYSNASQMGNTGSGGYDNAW
# Some of the results follow.
# Target: DNA-directed RNA polymerase II subunit RPB3 (UniProt P16370)
# Assay: cross-link between two proteins; cross-linking mass spectrometry
substance,measurement,value
"DNA-directed RNA polymerase II subunit RPB1, P04050",listed as a hit,yes
